Experiment: Metabolic stability in mouse liver microsomes at 1 uM in presence of NADPH incubated for 45 mins by LC-MS/MS analysis
Assay type: ADME, Microsome
Settings: read-out: Stability

remaining at 0.75 h, 1 µM: 5.36%
SMILES: C=CC(=O)Nc1nc(-c2ccc(Cl)cc2)cs1
